In patent US8563473B2, “Aqueous herbicidal concentrates of auxinic carboxylic acids with reduced eye irritancy” (Dow AgroSciences, LLC., priority 2010, dated 2013):

Tested on: eye (cornea, iris, conjunctivae) of New Zealand albino rabbit
Assay: Eye irritation testing in rabbit (OECD 405 guideline)
Conditions: most sensitive animal, 21 days after application; maximum score 10

choline salt of 2,4-D [2,4-D choline]
Eye irritation score, Conjunctivae (conjunctivitis): no or minimal conjunctivitis
